The values that follow come from PubChem BioAssay AID900 (National Center for Advancing Translational Sciences (NCATS), 2007).

Chains of the proteins cited; added tags and fusions are not shown. Lines headed by an entry give the natural chain unless they say otherwise; changes in a name come on top.
UniProt P29466: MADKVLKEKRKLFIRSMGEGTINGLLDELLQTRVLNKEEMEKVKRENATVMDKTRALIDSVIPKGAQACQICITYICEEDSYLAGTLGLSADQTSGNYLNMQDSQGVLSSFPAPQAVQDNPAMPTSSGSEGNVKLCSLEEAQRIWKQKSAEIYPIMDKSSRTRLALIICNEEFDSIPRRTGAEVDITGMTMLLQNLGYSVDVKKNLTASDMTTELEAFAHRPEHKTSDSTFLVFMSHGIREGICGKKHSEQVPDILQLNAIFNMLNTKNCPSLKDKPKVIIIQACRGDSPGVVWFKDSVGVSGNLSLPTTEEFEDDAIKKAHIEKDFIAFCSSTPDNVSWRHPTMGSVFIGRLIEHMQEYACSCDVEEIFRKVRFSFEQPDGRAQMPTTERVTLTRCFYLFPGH

This list holds what a sample rich in hits left over. The source made the active and inactive calls. Calls follow the shape of the dose curve; as a rule, active = well fitted inhibition curve with a large enough effect; inconclusive = small, poorly fitted or top-dose-only effect; inactive = flat fitted curve, though single readings scatter.

This experiment has as its target Caspase-1 (Homo sapiens) (UniProt P29466). As to the kind of experiment: qHTS Assay for Allosteric/Competitive Inhibitors of Caspase-1.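 Also: plate controls were vehicle for no effect and no substrate for full effect.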 The settings on record: Caspase-1 enzyme, Ac-WEHD-AFC fluorogenic rate; at 25.7 µM (top of the series). An excerpt:
NIH Molecular Libraries Screening Centers Network [MLSCN]
NIH Chemical Genomics Center [NCGC]
PI Name: Dr. James Wells,
Dr. Enrique Perez-Paya, Dr.Janice Williams, Dr. Dennis Wolan, a person
The caspases (Cysteine Aspartyl Protease) comprise a related family of 14 dimeric proteases that are critical mediators of apoptosis (programmed cell death) and inflammation. The caspases represent an important class of drug targets for stroke, ischemia, cancer and inflammatory diseases. […] One goal of this project was to identify compounds that act as allosteric inhibitors via stabilizing the procaspase form of the enzyme. […]
The biochemical assay was configured using purified caspase 1 at a high enzyme concentration to promote formation of the homodimers and thus facilitate the identification of allosteric inhibitors. […] After initiation of the assay with substrate the plates were rapidly read using an automated robotic system (Kalypsys, Inc.) to maintain consistent timing. […]
Caspase 1 was prepared in buffer (50 mM HEPES pH 7.5, 50 mM KCl, 200 mM NaCl, 10 mM DTT, 0.1% CHAPS) at a concentration of 66.6 nM and 3 uL was dispensed to all wells using black solid Kalypsys 1536-well plates. […] The plates were then exposed using 405 nm excitation/520 nm emission filters for 4 sec and read at 20 sec intervals for 3 min. […]
Regarding `Cc1cc2c(C(C)C)c(O)c(O)c(C=O)c2c(O)c1-c1c(C)cc2c(C(C)C)c(O)c(O)c(C=O)c2c1O`, the activity change, negative = inhibition was inactive: -6.57%.
